Measurements: patent US8288404B2, “Pyrrolidine GPR40 modulators” (Bristol-Myers Squibb Company, priority 2009, dated 2012)

Protein sequences, listed by entry. Tags and fused reporters are not part of them.
UniProt O14842, whole entry: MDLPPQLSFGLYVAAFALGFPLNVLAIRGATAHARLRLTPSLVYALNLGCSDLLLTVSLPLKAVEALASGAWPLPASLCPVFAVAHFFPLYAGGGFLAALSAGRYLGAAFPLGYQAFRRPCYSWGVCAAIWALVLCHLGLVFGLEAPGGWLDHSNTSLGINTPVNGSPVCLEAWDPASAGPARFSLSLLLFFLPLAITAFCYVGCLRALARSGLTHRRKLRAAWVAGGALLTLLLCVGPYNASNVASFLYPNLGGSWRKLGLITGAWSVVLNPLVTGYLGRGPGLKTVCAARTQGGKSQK

Molecular target: hGPR40 (Homo sapiens, UniProt O14842)
Assay: FDSS-Based Intracellular Calcium Assay (Human GRP40 In Vitro assay)
Conditions: read-out: hGPR40 EC50; cell lines expressing GPR40, intracellular Ca2+ response, FDSS reader
Experimental: FDSS-Based Intracellular Calcium Assay
Cell lines expressing GPR40 are generated using the pDEST 3xflag gene expression system and are cultured in culture medium comprising the following components: F12 (Gibco #11765), 10% lipid deprived fetal bovine serum, 250 ug/ml zeocin and 500 ug/ml G418. To conduct the fluorescent imaging plate reader (FLIPR)-based calcium flux assay to measure intracellular Ca^2+ response, cells expressing GPR40 are plated on 384 well plates (BD Biocoat #356697) at a density of 20,000 cells/20 ul medium per well in phenol red and serum-free DMEM (Gibco #21063-029) and incubated overnight. Using BD kit #s 80500-310 or -301, the cells are incubated with 20 ul per well of Hank's buffered salt solution with 1.7 mM probenecid and Fluo-3 at 37° C. for 30 minutes. Compounds are dissolved in DMSO and diluted to desired concentrations with assay buffer and added to the cells as 3× solution (20 ul per well). Run fluorescence/luminescence reader FDSS (Hamamatsu) to read intracellular Ca^2+ response.
Examples 1 to 109 disclosed below were tested in the Human GRP40 In Vitro assay described immediately above and found having hGRP40 modulating activity. Table 1 below lists hGPR40 EC50 values measured for the following examples.

Compound	EC50 [µM]
O=C(O)C[C@@H]1CCCN1c1ccc(OCc2ccccc2-c2ccccc2)cc1	0.299
O=C(O)C[C@@H]1CCCN1c1ccc(OCc2ccccc2OC(F)(F)F)cc1	0.063
